By Km is commonly meant the substrate concentration at which the rate is half of its maximum.

This is an account of results in article PMC3105092, “Biochemical Comparison of Anopheles gambiae and Human NADPH P450 Reductases Reveals Different 2′-5′-ADP and FMN Binding Traits” (PLoS ONE, 2011).

The series concerns nicotinamide adenine dinucleotide phosphate, reduced form. Nature of the series: purified protein, by the assay type. The settings on record: pH 7.7; 25.0 °C.

“And” between values parts separate entries of the source, which are not always exact repeats. Equal entries are not always repeated.

AgCPR (Anopheles gambiae): the Km is 30.0 µM and 12.4 µM.
